# Reference: US20110233146A1, “S[…] CONTROL COMPOSITION, SYSTEMS, AND RELATED METHODS THEREFOR” (Siemens Water Technologies Corp., priority 2009, published 2011)
# System: dissolved sulfide
# Assay: Sewerage system field trial (Example 1): dissolved sulfide grab samples at LS481, LS480 and treatment plant influent
# Details: 10/14 to 10/17, after 10 gal anthraquinone slug on 10/13 at LS482; with calcium hydroxide slurry 258 GPD; nitrate salt solution 197 GPD
smiles,measurement,value
"O=C1c2ccccc2C(=O)c2ccccc21 [Anthraquinone, anthraquinone]",LS481 S^2− MH In Grab,0 mg/L
